Among the data in the supplement of paper PMC10702517 are chemical recovery values, retold here.

± gives the standard deviation.

The series can be described thus: chemical recovery from spiked human plasma; higher = better extraction. As to conditions: pooled human plasma.
The mark [1] stands for this setting: extraction method: SPE only (HLB 96-well).
The mark [2] stands for this setting: extraction method: solvent precipitation (ACN + hexane).

On to `CCC[N+](CCC)(CCC)CCC` [Tetrapropylammonium], for which the chemical recovery reads like this: (extraction method: PES+SPE (3 d PDMS equilibration then HLB SPE)) 28.4 ± 5.6%; under setting [1], 23.8 ± 7%; (extraction method: SPE only (HLB 96-well), PES comparison experiment) 34.3 ± 11%; under setting [2], 78.6 ± 4.2%.

Turning to `CCOP(=S)(OCC)Oc1ncn(-c2ccccc2)n1` [Triazophos], the chemical recovery under setting [1] amounted to 33.7 ± 1.6% and the chemical recovery under setting [2] came to 67.2 ± 2.5%.
